Results reported in ChEMBL document CHEMBL3217649, “Synthesis of new N-substituted aminoquercitols from naturally available (+)-proto-quercitol and their -glucosidase inhibitory activity” (Medchemcomm, 2012).

The chains behind the UniProt entries cited, without tags or fusion partners. Residues count along the entry.
UniProt P23739, 1014-1841 limits assumed: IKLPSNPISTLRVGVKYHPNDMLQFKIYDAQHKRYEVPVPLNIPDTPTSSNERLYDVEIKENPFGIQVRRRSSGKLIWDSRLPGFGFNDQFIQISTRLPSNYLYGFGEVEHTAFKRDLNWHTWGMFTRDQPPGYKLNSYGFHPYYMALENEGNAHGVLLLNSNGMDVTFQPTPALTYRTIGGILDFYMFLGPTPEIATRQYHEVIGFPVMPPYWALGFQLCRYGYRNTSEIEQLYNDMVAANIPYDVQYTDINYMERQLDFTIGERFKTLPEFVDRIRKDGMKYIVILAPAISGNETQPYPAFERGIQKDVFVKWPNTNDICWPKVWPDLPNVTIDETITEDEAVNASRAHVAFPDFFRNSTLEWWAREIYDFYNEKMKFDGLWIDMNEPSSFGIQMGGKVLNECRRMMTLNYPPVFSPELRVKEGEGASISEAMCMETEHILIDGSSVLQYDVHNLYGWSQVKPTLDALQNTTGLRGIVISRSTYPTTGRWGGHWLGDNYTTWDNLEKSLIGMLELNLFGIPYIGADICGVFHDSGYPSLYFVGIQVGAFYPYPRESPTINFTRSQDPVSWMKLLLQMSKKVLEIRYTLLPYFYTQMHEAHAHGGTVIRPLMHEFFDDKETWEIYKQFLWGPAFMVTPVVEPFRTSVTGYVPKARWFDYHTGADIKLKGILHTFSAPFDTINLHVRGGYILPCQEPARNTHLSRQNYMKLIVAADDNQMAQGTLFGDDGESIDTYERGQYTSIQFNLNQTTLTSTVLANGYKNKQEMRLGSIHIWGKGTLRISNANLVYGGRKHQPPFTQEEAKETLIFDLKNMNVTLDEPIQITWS
UniProt P23739, 1-1013 limits assumed: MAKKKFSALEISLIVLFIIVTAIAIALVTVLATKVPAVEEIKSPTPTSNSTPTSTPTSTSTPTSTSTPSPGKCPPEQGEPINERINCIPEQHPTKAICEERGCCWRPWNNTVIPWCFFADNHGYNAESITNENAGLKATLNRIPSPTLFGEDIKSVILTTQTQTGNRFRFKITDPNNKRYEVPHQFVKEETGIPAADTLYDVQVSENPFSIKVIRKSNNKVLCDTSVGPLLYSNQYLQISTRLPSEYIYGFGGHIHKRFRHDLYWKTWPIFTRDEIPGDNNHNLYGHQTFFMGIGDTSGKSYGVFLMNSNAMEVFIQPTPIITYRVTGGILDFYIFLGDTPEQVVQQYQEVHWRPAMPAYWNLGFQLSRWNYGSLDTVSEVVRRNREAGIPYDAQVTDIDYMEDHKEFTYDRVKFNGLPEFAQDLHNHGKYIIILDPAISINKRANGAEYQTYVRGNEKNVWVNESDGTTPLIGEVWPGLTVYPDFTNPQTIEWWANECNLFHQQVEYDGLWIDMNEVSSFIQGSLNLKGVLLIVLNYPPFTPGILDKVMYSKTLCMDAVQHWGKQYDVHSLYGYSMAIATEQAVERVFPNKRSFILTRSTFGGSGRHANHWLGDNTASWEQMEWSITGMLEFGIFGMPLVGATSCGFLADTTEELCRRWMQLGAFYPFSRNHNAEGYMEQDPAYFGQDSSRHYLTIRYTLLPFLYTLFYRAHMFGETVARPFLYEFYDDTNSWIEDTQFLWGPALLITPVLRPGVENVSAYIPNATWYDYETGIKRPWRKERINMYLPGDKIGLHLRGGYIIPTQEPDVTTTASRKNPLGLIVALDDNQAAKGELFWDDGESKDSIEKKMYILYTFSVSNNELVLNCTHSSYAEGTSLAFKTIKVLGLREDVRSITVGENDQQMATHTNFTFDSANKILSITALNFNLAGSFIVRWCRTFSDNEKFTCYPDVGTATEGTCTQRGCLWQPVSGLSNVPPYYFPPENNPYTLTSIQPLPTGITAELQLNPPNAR

Target: Sucrase-isomaltase, intestinal (Rattus norvegicus, UniProt P23739)
Test: Inhibition of sucrase in rat small intestine using sucrose as substrate after 40 mins by microplate reader analysis

For `C[C@H]1O[C@H](O[C@H]2[C@H](O)[C@@H](O)[C@@H](O[C@H]3[C@H](O)[C@@H](O)C(O)O[C@@H]3CO)O[C@@H]2CO)[C@H](O)[C@@H](O)[C@@H]1N[C@H]1C=C(CO)[C@@H](O)[C@H](O)[C@H]1O` (stereo partly specified) [ACARBOSE], the pIC50 was 5.64.

pIC50: −log10 of the molar value.
